# Experimental data published in PubChem BioAssay AID1385 (PCMD, 2008).
# By UniProt entry, the sequences of proteins in these tests, tags left out.
# UniProt Q06609, whole entry: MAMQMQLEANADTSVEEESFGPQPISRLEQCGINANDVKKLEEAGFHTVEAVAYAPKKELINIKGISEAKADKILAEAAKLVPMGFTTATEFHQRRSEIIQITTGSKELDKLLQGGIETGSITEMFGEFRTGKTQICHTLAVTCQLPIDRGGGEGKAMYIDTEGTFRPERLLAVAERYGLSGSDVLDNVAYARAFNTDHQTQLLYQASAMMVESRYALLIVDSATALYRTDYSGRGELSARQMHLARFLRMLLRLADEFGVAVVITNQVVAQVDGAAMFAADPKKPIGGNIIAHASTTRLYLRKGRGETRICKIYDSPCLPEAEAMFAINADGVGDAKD
# The entries are a selection whose mix differs from that of the whole data set. Some of these compounds have results that are not shown, active ones among them. Active and inactive are the calls of the source.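 How the source made its calls: active means inhibition above 40% at the single screening dose; inactive means the rest.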
# Biological target: DNA repair protein RAD51 homolog 1 (Homo sapiens) (UniProt Q06609)
# Assay: human RAD51 strand exchange inhibitors, primary screen, biochemical, fluorescence (AID 1385);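 further: 0% = DMSO control wells and 100% = blanks with heterologous ssDNA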
# Conditions: hRad51 DNA strand exchange, fluorescence dequenching; at 10 µM; hits give high values
row,Compound,inhibition
1,COc1cccc(C(=O)NCC2(N3CCCCC3)CCCCC2)c1,inactive: 9.06%
2,O=C(OC1CN2CCC1CC2)C(CO)(c1ccccc1)c1ccccc1 (stereo not given),inactive: 0.49%
3,COc1ccc(Br)c(C(=O)NCC2(N3CCCCC3)CCCCC2)c1,inactive: -38.4%
4,CN(C)c1cccc(C(=O)NCC2(N(C)C)CCCCC2)c1,inactive: 16.2%
5,CCN(CC)CC(C)C(C)OC(=O)C(O)(c1ccccc1)c1ccccc1 (stereo not given),inactive: 1.12%
6,CC(C)N1C(=O)CC2(CCN(CCOC(=O)C(O)(c3ccccc3)c3ccccc3)CC2)C1=O,inactive: 3.57%
7,Cc1ccccc1C(=O)NCC1(N2CCCCC2)CCCCC1,inactive: -18.8%
8,CN(C)C1CCCC1OC(=O)C(O)(c1ccccc1)c1ccccc1 (stereo not given),inactive: 1.54%
9,C=CCN1CCN(CCOC(=O)C(O)(c2ccccc2)c2ccccc2)CC1,inactive: 11.1%
10,CCN1CCCC(OC(=O)C2(O)c3ccccc3C=Cc3ccccc32)C1 (stereo not given),inactive: -31.6%
